The results in this text go back to paper PMC5078011, “The oleocanthal-based homovanillyl sinapate as a novel c-Met inhibitor” (Oncotarget, 2016).

The chains behind the UniProt entries cited, without tags or fusion partners.
UniProt P00519, whole entry: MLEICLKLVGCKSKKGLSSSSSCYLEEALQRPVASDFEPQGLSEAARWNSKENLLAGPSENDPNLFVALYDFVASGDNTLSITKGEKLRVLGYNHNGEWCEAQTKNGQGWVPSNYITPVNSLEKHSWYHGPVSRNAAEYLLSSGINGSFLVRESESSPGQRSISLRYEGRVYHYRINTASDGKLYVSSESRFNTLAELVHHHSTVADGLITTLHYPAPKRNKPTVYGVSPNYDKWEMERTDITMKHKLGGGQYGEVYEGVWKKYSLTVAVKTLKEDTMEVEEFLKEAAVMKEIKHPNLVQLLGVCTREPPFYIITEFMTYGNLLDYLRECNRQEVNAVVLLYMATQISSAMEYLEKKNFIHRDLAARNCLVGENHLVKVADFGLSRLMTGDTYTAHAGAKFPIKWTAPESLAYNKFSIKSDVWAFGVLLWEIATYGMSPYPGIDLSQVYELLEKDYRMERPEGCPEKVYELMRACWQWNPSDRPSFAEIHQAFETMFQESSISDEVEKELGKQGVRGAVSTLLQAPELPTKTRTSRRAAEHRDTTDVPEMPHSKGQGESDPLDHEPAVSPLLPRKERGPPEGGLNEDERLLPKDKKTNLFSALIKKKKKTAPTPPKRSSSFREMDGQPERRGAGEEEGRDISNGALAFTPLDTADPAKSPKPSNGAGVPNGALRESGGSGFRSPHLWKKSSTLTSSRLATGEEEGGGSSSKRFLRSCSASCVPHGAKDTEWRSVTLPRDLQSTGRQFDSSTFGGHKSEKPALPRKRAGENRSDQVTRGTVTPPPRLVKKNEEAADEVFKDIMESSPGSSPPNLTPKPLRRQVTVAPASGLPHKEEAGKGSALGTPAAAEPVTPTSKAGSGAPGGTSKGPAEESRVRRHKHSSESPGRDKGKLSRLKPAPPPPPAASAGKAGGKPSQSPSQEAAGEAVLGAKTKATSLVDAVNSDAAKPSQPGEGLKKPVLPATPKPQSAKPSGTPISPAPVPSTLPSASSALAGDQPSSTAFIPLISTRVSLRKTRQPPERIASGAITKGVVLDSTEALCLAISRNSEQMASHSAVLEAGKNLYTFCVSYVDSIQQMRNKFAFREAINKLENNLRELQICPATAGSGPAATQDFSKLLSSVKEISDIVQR

For this test, the target named is ABL1 (Homo sapiens, UniProt P00519).

The structures appear in SMILES notation.

Regarding `COc1cc(CCOC(=O)/C=C/c2cc(OC)c(O)c(OC)c2)ccc1O` [HVS], the “Mean inhibition at 10 μM (%)” value turned out to be 69.
